Test results as given in patent publication US20020164707A1, “Calcitonin gene related peptide receptor” (Human Genome Sciences, Inc., priority 1994, published 2002).

System: untransfected 293 cells
Test: cAMP response in untransfected control 293 cells
Assay type: cell-based, human
From the text: Values represent the mean plus/minus SEM.
FIG. 6. Dose response of human CGRP-mediated cAMP accumulation in 293 cells (clone 22 cells from FIG. 5) stably transformed with the CGRP receptor cDNA. Each data point represents the mean of triplicate determinations.
The DNA sequence encoding CGRP receptor polypeptide, ATCC # 75824, was re-configured for -expression (with and without a C-terminal DET tag ([…])) in the mammalian expression vector PCDN. This involved the removal of the entire 3′ and 5′ untranslated regions along with two cryptic methionine residues at putative amino acid positions −11 and −1 located upstream from the chosen methionine that could potentially negatively influence the expression. To increase the efficiency of expression, a flanking Kozak consensus sequence (CCACC) was added to the chosen start methionine residue. The resulting constructs were separately transfected into both COS and Human Kidney 293 cells by DEAE dextran sulfate and Lipofectin reagent protocols, respectively. For transient expression cells were assayed at 72 hours post-transfection for the accumulation of cAMP in response to ligand exposure. […] For stable cell lines the transfected 293 cells were selected in the presence of 400 μg/ml of Geneticin (G418 Sulfate) and assayed for the accumulation of cAMP in response to CGRP.

With `CC(C)C[C@H](NC(=O)CNC(=O)[C@H](C)NC(=O)[C@H](CC(C)C)NC(=O)[C@H](CCCNC(=N)N)NC(=O)[C@H](Cc1c[nH]cn1)NC(=O)[C@@H](NC(=O)[C@@H](NC(=O)[C@@H]1CSSC[C@H](NC(=O)[C@H](C)N)C(=O)N[C@@H](CC(=O)O)C(=O)N[C@@H]([C@@H](C)O)C(=O)N[C@@H](C)C(=O)N[C@@H]([C@@H](C)O)C(=O)N1)C(C)C)[C@@H](C)O)C(=O)N[C@@H](CC(C)C)C(=O)N[C@@H](CO)C(=O)N[C@@H](CCCNC(=N)N)C(=O)N[C@@H](CO)C(=O)NCC(=O)NCC(=O)N[C@H](C(=O)N[C@H](C(=O)N[C@@H](CCCCN)C(=O)N[C@@H](CC(N)=O)C(=O)N[C@@H](CC(N)=O)C(=O)N[C@@H](Cc1ccccc1)C(=O)N[C@H](C(=O)N1CCC[C@H]1C(=O)N[C@H](C(=O)N[C@@H](CC(N)=O)C(=O)N[C@H](C(=O)NCC(=O)N[C@@H](CO)C(=O)N[C@@H](CCCCN)C(=O)N[C@@H](C)C(=O)N[C@@H](Cc1ccccc1)C(N)=O)C(C)C)[C@@H](C)O)C(C)C)C(C)C)C(C)C` [human CGRP] the “change in cAMP response” value (0.3 μM human CGRP, untransfected cells (control)) was “no change” and the “stimulation of cAMP accumulation” value (control untransfected 293 cells, 1,000 nM concentration) was “two-fold stimulation”.
